# Experimental data as given in PMC5464344, “Analgesic and anti‐inflammatory properties of novel, selective, and potent EP4 receptor antagonists” (Pharmacology Research & Perspectives, 2017).
# The chains behind the UniProt entries cited, without tags or fusion partners. Where a name states a change or a piece, a line headed by the entry shows the natural chain unless it says otherwise.
# UniProt P43116: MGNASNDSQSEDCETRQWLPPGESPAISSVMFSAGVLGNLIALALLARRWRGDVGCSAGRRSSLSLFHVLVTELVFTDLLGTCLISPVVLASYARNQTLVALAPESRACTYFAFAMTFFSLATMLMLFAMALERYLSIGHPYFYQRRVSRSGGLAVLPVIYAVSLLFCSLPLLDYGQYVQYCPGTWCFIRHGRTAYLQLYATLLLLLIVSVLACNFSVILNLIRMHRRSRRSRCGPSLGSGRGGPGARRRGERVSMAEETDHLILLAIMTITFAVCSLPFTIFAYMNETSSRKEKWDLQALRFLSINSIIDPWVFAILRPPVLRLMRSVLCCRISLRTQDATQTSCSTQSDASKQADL
# Target: T1, human EP2 receptor (Homo sapiens, UniProt P43116)
# T1 construct: host or cells: HEK293, transient; membrane preparation
# Test: [3H]-PGE2 receptor binding assay, EP2 membranes
# Settings: read-out: ^3[H] PGE2 Binding/kd EP2; HEK 293 membranes, homologous competition (Fig. 3D)
# Method: Receptor binding assays were done using membrane preparations of HEK 293 cells transfected with various prostanoid receptors using previously published procedure (Nakao et al. 2007). EP1 and EP4 membranes were prepared from recombinant HEK293 cells stably expressing human EPl receptor (GenBank Accession # AY275470, Clone ID PER0100000, UMR cDNA Resource Center, Rolla, MO) or human EP4 receptor. EP2 and EP3 membranes were prepared from HEK293 cells transiently transfected with human EP2 receptor (GenBank Accession # AY275471, Clone ID PER0200000, UMR cDNA Resource Center, Rolla, MO) or human EP3 receptor (GenBank Accession # AY429108, Clone ID PER3VI0000, UMR cDNA Resource Center, Rolla, MO) plasmids. […] The membranes were harvested by filtration (TomTek harvester), washed four times with cold buffer (10 mmol/L MES, pH 6.0, 10 mmol/L MgCl2), dried in a 60°C oven, and the radioactivity was quantified as counts per min (CPM) using a TopCount detector. […] Data were analyzed using a 4‐parameter nonlinear logistic equation. […] Results are expressed as the geometric mean ± standard deviation or geometric mean ± standard error as noted.
smiles,measurement,value
"CCCCC[C@H](O)/C=C/[C@H]1[C@H](O)CC(=O)[C@@H]1C/C=C\CCCC(=O)O [^3[H] PGE2, reference compound]",Kd,4.12 nM
